The list shows a part of the results, in another mix than the full data. Activity calls are given as the source filed them. Rule as the data show it: active = inhibition above about 12%; inconclusive = no clear call, values can overlap the other calls; inactive = below about 7.3%.
target: Kelch-like ECH-associated protein 1 (Homo sapiens) (UniProt Q14145); assay: disruptors of Keap1 binding to Nrf2 – biochemical, fluorescence polarization, single point, primary screen (AID 504523); settings: Keap1 Kelch-Nrf2 peptide fluorescence polarization, 1536-well; at 9.4 µM; hits give high values;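 also: human Keap1 Kelch domain with fluorescein labeled Nrf2 9mer peptide probe; 0% = neutral control wells and 100% = peptide positive control; higher means more block of Keap1 binding to Nrf2 peptide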

Amino acid sequences for entries named in this document (tags omitted).
UniProt Q14145, whole entry: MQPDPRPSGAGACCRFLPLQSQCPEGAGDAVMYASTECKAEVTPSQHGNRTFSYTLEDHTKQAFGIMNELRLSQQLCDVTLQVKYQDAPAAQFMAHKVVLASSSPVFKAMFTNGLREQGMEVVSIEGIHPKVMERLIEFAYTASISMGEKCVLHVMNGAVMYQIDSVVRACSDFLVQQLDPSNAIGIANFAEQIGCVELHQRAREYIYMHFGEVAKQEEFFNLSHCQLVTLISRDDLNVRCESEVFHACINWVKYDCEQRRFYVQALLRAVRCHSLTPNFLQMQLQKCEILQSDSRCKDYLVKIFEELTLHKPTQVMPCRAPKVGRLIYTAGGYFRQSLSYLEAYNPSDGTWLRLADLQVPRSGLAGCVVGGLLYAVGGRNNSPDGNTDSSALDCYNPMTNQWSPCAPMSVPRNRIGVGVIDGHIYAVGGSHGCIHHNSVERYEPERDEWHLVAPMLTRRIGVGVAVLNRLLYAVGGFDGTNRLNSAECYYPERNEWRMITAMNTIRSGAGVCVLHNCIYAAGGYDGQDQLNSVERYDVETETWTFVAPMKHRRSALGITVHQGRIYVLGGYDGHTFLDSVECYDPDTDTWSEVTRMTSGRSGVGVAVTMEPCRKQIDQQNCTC
UniProt Q16236, whole entry partner: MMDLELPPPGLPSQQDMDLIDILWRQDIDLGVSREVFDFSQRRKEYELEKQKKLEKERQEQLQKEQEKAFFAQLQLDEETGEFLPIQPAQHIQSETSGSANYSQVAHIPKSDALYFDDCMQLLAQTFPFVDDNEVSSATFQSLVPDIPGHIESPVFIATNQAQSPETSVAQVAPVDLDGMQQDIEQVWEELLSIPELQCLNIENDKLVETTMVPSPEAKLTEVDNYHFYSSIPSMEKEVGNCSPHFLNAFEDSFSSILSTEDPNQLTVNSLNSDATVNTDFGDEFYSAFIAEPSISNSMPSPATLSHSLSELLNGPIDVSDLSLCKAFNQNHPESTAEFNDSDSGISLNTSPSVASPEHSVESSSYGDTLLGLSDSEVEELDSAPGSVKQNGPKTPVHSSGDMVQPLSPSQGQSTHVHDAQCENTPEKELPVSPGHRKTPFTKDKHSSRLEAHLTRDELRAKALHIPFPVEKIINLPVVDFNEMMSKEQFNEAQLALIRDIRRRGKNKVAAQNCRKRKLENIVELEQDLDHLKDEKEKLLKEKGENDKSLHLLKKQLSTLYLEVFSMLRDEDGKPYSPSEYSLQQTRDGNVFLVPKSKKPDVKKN

| SMILES | inhibition |
| --- | --- |
| Cc1cc(N(CCCl)CCCl)ccc1C=O | inactive: -4.58% |
| CCCN1CCC(Nc2cc(OC)cc(OC)c2)CC1 | active: 15% |
| c1ccc(CN2CCC(Nc3ccccc3)CC2)cc1 | inactive: 3.9% |
| CN(C)C1(CNC(=O)c2cccc(C#N)c2)CCCCC1 | inactive: -1.65% |
| CC(C)(C)OC(=O)N1CCC(N(C(=O)c2ccccc2)c2ccc(Cl)cc2)CC1 | inactive: -4.62% |
| N#Cc1ccc(C(=O)NCC2(N3CCCCC3)CCCCC2)cc1 | inactive: -0.387% |
| O=C(OC1CN2CCC1CC2)C1c2ccccc2C=Cc2ccccc21 (centres undefined) | inactive: -3.73% |
| N/C(=N\O)c1c(N)no[n+]1[O-] | inactive: -2% |
| CCOC(=O)N1CCC(Nc2ccc(C)cc2)CC1 | inactive: -3.11% |
| COc1ccc(C(=O)NCC2(N3CCOCC3)CCCCC2)cc1OC | inactive: -4.91% |
| O=C(NCC1(N2CCOCC2)CCCCC1)c1cc(Br)ccc1Cl | inactive: -10.6% |
| COc1cc(C(=O)NCC2(N3CCOCC3)CCCCC2)cc(OC)c1C | inactive: 4.48% |
| CN1CCC(Nc2ccc(Cl)cc2)CC1 | inactive: 2.22% |
| CCC(CO)(C(=O)OC1CN2CCC1CC2)c1ccccc1 (centres undefined) | inactive: -0.487% |
| COc1cc(OC)cc(C(=O)NCC2(N3CCOCC3)CCCCC2)c1 | inactive: -0.77% |
| COc1cccc(C(=O)N(c2cc(C)cc(C)c2)C2CCN(C(=O)OC(C)(C)C)CC2)c1 | inactive: -3.02% |
| CCCOc1ccc(C(=O)NCC2(N(C)C)CCCCC2)cc1 | inactive: -1.22% |
| O=C(O)C1(Nc2ccccc2)CCN(Cc2ccccc2)CC1 | inactive: 2.96% |
| CC(C)(C)OC(=O)N1CCC(Nc2ccccc2)CC1 | inactive: -2.36% |
| CN1CCC(Nc2ccc(F)c(Cl)c2)CC1 | inactive: -8.01% |
| CCOc1ncccc1C(=O)NCC1(N2CCOCC2)CCCCC1 | inactive: -4.82% |
| Cn1c(=O)[nH]cc(N(CCCl)CCCl)c1=O | inactive: -5.87% |
| CN(C)c1ccc(C(=O)NCC2(N3CCCCC3)CCCCC2)cc1 | inactive: -1.56% |
| O=C(NCC1(N2CCCCC2)CCCCC1)c1ccco1 | inactive: -3.81% |
| CCN1CCC(Nc2cccc(F)c2)CC1 | inactive: -2.69% |

| SMILES | inhibition |
| --- | --- |
| Cc1ccccc1NC1(C#N)CCN(Cc2ccccc2)CC1 | inactive: -6.47% |
| Cc1ccc(NC2(C#N)CCN(Cc3ccccc3)CC2)cc1 | inactive: 2.73% |
| Fc1ccccc1NC1CCN(Cc2ccccc2)CC1 | inactive: 2.98% |
| Cc1ccc(C(=O)NCC2(N3CCCCC3)CCCCC2)o1 | inactive: -0.272% |
| COc1cc(OC)cc(C(=O)NCC2(N3CCCCC3)CCCCC2)c1 | inactive: -0.322% |
| CC(=O)N(c1ccccc1)C1CCNCC1 | inactive: 5.03% |
| COc1cc(C(=O)NCC2(N(C)C)CCCCC2)ccc1OC(F)F | inactive: -0.178% |
| CCOC(=O)N1CCC(Nc2cccc(C)c2)CC1 | inactive: -4% |
| COc1ccc(NC2CCN(CCc3ccccc3)CC2)c(OC)c1 | inactive: -0.953% |
| CCOC(=O)N1CCC(Nc2ccc(F)cc2)CC1 | inactive: 1.12% |
| O=C(NCC1(N2CCCCC2)CCCCC1)c1ccc(F)cc1 | inactive: -6.01% |
| O=P1(N(CCCl)CCCl)SCCCS1 | inactive: 7.06% |
| CCCCOc1ccc(C(=O)NCC2(N3CCOCC3)CCCCC2)cc1 | inactive: 1.1% |
| CCOc1ccc(C)cc1CN(CCCl)CCCl | inactive: -18.6% |
| O=C1CCN(Cc2ccccc2)CC1 | inactive: 0.118% |
| CCOC(=O)N1CCC(Nc2ccc(OC)cc2)CC1 | inactive: 0.564% |
| COc1ccc(Cl)cc1C(=O)NCC1(N2CCOCC2)CCCCC1 | inactive: -7.62% |
| O=C(OC1CN2CCC1CC2)C1c2ccccc2Oc2ccccc21 (centres undefined) | inactive: -1.07% |
| O=C(NCC1(N2CCCCC2)CCCCC1)c1ccc(Cl)s1 | inactive: -3.06% |
| N#CC1(Nc2ccccc2)CCN(Cc2ccccc2)CC1 | inactive: -1.97% |
| O=C(NCC1(N2CCOCC2)CCCCC1)c1cc2ccccc2o1 | inactive: -6.37% |
| Cc1cc(C)cc(N(C(=O)c2ccccc2)C2CCN(C(=O)OC(C)(C)C)CC2)c1 | inactive: 2.11% |
| O=C(NCC1(N2CCCCC2)CCCCC1)c1ccc(Cl)nc1 | inactive: -6.84% |
| Cc1cccc(NC2(C#N)CCN(Cc3ccccc3)CC2)c1 | inactive: -5.04% |
| CSc1ccccc1C(=O)NCC1(N2CCCCC2)CCCCC1 | inactive: -0.0766% |

| SMILES | inhibition |
| --- | --- |
| O=C(NCC1(N2CCCCC2)CCCCC1)c1cccs1 | inactive: -2.74% |
| O=C(NCC1(N2CCCCC2)CCCCC1)c1ccc(=O)[nH]c1 | inactive: -6.19% |
| CC(C)(C)OC(=O)N1CCC(N(C(=O)c2ccccc2)c2ccc(F)cc2)CC1 | inactive: 2.84% |
| COc1ccc(C(=O)NCC2(N3CCCCC3)CCCCC2)c(OC)c1OC | inactive: -4.75% |
| COc1ccc(C(=O)NCC2(N3CCCCC3)CCCCC2)cc1 | inactive: -4.78% |
| CCCOc1ccc(C(=O)NCC2(N(C)C)CCCCC2)cc1OC | inactive: -1.24% |
| O=C(NCC1(N2CCCCC2)CCCCC1)c1cncc(Br)c1 | inactive: 3.12% |
| CN1CCC(Nc2cccc(F)c2)CC1 | inactive: 2.98% |
| O=C(NCC1(N2CCOCC2)CCCCC1)c1cc(F)c(F)cc1Cl | inactive: 0.928% |
| COc1cc(OC)c(C(=O)NCC2(N(C)C)CCCCC2)cc1OC | inactive: -0.177% |
| CN(C)c1cccc(C(=O)NCC2(N3CCCCC3)CCCCC2)c1 | inactive: 0.08% |
| COc1ccc(CN(CCCl)CCCl)cc1Cl | inactive: 2.07% |
| CC(C)c1ccc(NC2CCN(C(=O)OC(C)(C)C)CC2)cc1 | inactive: -1.48% |
| CN1CCN(CCOC(=O)C(O)(c2ccccc2)c2ccccc2)CC1 | inactive: 1.33% |
| CC(C)c1ccc(C(=O)NCC2(N3CCOCC3)CCCCC2)cc1 | inactive: 3.5% |
| COc1ccc(NC2CCN(C(=O)OC(C)(C)C)CC2)cc1 | inactive: -1.35% |
| COc1cc(C(=O)NCC2(N3CCCCC3)CCCCC2)ccc1OC(F)F | inactive: -2.77% |
| O=C(NCC1(N2CCOCC2)CCCCC1)c1cc(=O)[nH]c2ccccc12 | inactive: 2.17% |
| O=C(NCC1(N2CCCCC2)CCCCC1)c1cccc(C(F)(F)F)c1 | inactive: 2.24% |
| O=C(NCC1(N2CCCCC2)CCCCC1)c1cccc([N+](=O)[O-])c1 | inactive: -1.6% |
| CSc1ccc(C(=O)NCC2(N3CCOCC3)CCCCC2)cc1 | inactive: -0.801% |
| N#CC1(Nc2ccccc2)CCN(CCc2ccccc2)CC1 | inactive: -1.52% |
| CCN1CCC(Nc2ccc(Cl)cc2)CC1 | inactive: -1.55% |
| O=C(NCC1(N2CCCCC2)CCCCC1)c1ccc(OC(F)F)cc1 | inactive: 5.48% |

From PubChem BioAssay AID504523 (Broad Institute, 2011)
